# Molecular target: E. coli B nitroreductase (Escherichia coli, UniProt P38489)
# Protein sequences, listed by entry. Tags and fused reporters are not part of them.
# UniProt P38489, whole entry: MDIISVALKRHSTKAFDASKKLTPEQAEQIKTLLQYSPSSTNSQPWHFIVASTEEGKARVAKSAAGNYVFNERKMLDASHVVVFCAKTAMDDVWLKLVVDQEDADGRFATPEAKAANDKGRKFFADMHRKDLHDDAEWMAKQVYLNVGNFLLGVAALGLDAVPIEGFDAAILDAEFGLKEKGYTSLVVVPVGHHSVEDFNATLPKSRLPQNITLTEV
# Details: pH 7.5; tested form: K salt
smiles,measurement,value
CC1(C)C(=CC=CC=CC2=[N+](Cc3cc([N+](=O)[O-])cc([N+](=O)[O-])c3)c3ccc(S(=O)(=O)[O-])cc3C2(C)C)N(CCCCCC(=O)O)c2ccc(S(=O)(=O)O)cc21,Km,8.6 µM

# From US7662973B2, “Fluorescent detection method and reagent” (GE Healthcare UK Limited, priority 2000, dated 2010)
